By UniProt entry, the sequences of proteins in these tests, tags left out.
Melanocortin receptor 4 (Homo sapiens), P32245, UniProt P32245, whole entry, looked up: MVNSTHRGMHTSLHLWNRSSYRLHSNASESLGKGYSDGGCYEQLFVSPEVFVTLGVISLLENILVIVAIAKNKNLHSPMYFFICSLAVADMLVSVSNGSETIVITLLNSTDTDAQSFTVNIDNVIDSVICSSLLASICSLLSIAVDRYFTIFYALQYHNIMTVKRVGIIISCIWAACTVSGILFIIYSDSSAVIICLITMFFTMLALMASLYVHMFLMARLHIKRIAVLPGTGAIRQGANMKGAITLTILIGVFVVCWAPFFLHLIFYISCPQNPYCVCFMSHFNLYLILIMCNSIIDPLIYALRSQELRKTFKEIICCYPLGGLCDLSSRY
ADP-ribosylation factor GTPase-activating protein 1 (Rattus norvegicus), Q62848, UniProt Q62848, whole entry, looked up: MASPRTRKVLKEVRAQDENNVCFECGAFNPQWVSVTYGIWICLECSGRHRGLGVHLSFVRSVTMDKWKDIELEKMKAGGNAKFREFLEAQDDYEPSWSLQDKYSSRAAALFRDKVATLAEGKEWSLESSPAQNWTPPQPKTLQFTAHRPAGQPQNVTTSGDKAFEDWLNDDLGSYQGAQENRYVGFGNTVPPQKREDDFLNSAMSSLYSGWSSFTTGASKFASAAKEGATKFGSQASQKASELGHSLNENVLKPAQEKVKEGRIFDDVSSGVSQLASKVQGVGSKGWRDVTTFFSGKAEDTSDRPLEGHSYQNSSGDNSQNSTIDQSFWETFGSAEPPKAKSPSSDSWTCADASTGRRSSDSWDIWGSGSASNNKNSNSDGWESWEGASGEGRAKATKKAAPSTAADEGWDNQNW

# Compounds with a hit are over-represented: about 2.3% of the library has one in this group of screens.
# MC4R ag barr – MC4R agonists recruiting beta-arrestin, primary screen, cell-based, luminescence, agonist arm of biased-ligand search | 360,000 compounds, 0.98% hits | Melanocortin receptor 4 (Homo sapiens), P32245 | U2OS MC4R beta-arrestin complementation; percent of melanotan II response, DMSO zero | activation, % at 8.9 µM | AID 540308, 2011;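 active = activation above a per-plate cutoff, the mean activation of sample wells on that plate plus 3 SD, cut at about 8% in these data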
# MC4R antag cAMP – MC4R antagonists of cAMP signaling, primary screen, cell-based, TR-FRET, antagonist arm of biased-ligand search; 360,000 compounds, 0.48% hits; MC4R-expressing cells, MTII-stimulated cAMP, LANCE TR-FRET; AID 540295, 2011; inhibition, % at 6.5 µM;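 active = inhibition above its plate's cutoff, the mean of tested wells on that plate plus 3 SD, cut at about 29% in these data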;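 also: 0% = Melanotan II alone and 100% = Melanotan II plus saturating MCL0020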
#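 material = U2OS cells stably expressing human melanocortin 4 receptor (MC4R) | also added = Melanotan II challenge | dosing = single nominal compound dose of 6.5 µM | detection = TR-FRET with Eu-cAMP and labeled anti-cAMP, 671 nm | replication = singlicate | timing = compound 30 min, challenge 1 h, detection 1 h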
# CendR NRP1 mod – modulators of CendR peptide binding to NRP-1, primary screen, biochemical, fluorescence polarization, uHTS. FAM-RPARPAR peptide binding to NRP-1. 360,000 compounds, 0.85% hits. inhibition, % at 25 µM. AID 602438, 2012;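 active = inhibition or corrected inhibition above about 18%, plus a signal ratio from 0.5 to 1.5, limit read from the data, passing the limit was not always enough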
# Yeast UUG start – modulators of start codon recognition fidelity in yeast; S. cerevisiae UUG-firefly luciferase reporter, luminescence/redox ratio; activity score, % at 18.7 µM; hit rate 0.13% among 350,000; AID 602363;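 active = replicate mean at a twofold rise or more, about +100% in these data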;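 note: firefly luciferase made from a UUG start codon reports start codon fidelity; reporter light over untreated wells divided by growth signal over untreated wells; some hits fall short of that in this replicate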
# ASAP1 inh – inhibitors of human ASAP1 ArfGAP activity, primary screen, biochemical, fluorescence polarization; inhibition, % at 16.5 µM; ASAP1-stimulated ARF1 GTP hydrolysis, GDP FP detection; Arf-GAP with SH3 domain, ANK repeat and PH domain-containing protein 1 (Homo sapiens), …; 360,000 compounds, 0.19% hits; AID 624377, 2012; in the data active = inhibition above about 25%;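 also: 0% = vehicle with enzyme and substrate and 100% = no enzyme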
# ARFGAP1 inh – inhibitors of rat ARFGAP1 GAP activity, primary screen, biochemical, fluorescence polarization, GDP tracer. 360,000 compounds, 0.26% hits. AID 651572, 2012. inhibition, % at 16.5 µM. Arfgap1-stimulated ARF1 GTP hydrolysis, GDP FP detection. ADP-ribosylation factor GTPase-activating protein 1 (Rattus norvegicus), Q62848;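 active = inhibition above a per-plate limit, mean inhibition of low control wells plus 3 SD, cut at about 25% in these data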;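 also: 0% = DMSO wells with enzyme and 100% = wells lacking Arfgap1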
#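 Material: rat Arfgap1 GAP domain (His6, aa 1-136), purified enzyme. Also added: human ARF1(Δ1-17)-GTP substrate. Compound dosing: 16.5 µM single point, 1.26% DMSO. Timing: enzyme reaction 120 min at 25 °C after 20 min preincubation. Signal: GDP detection by fluorescence polarization. Read-out basis: percent inhibition of GAP-stimulated GDP formation, scaled between DMSO and no-Arfgap1 medians.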
# MC4R barr ag – MC4R beta-arrestin agonists, retest, confirmation, cell-based, luminescence, U2OS | shares compounds with MC4R ag barr | U2OS MC4R beta-arrestin recruitment; scaled DMSO 0%, Melanotan II 100% | activation, % at 8.9 µM | 2,400 compounds, 31% hits;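 active = mean activation across replicates above the hit cutoff set in the earlier primary screen, cut at about 8% in these data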
# MOR-DOR barr ag – agonists of MOR-DOR heterodimerization, counter-screen for MC4R biased agonist project, cell-based, luminescence; shares compounds with MC4R ag barr; U2OS PathHunter beta-arrestin, beta-gal luminescence; percent of deltorphin B response, DMSO zero; activation, % at 9.2 µM; 2,400 compounds, 5.8% hits; AID 602194, 2012;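 active = mean activation across replicates exceeds the hit threshold derived in the earlier primary screen, cut at about 18% in these data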;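 also: 100% = deltorphin B at 0.9 µM final and 0% = DMSO alone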
# An asterisk follows results filed as active; nt = no result.
1. Cn1c(SCC(=O)Nc2ccc3c(c2)oc2ccccc23)nnc1-c1ccccc1
2. O=C(CSc1nc2ccccc2s1)Nc1ccc2c(c1)oc1ccccc12
3. CN1C(=O)c2cc(NC(=O)C3CCOCC3)ccc2OC[C@H]2O[C@@H](CC(=O)O)CC[C@H]21
4. C[C@H](CO)N1C[C@H](C)[C@@H](CN(C)S(C)(=O)=O)Oc2ccc(NC(=O)Nc3ccc(F)cc3)cc2C1=O
5. CC(c1ccccc1)c1nnc(NC(=O)c2ccc3c(c2)OCO3)s1 (stereo unspecified)
6. O=C(NC(=S)Nc1ccccc1Br)c1ccc2c(c1)OCO2
assay / entry	1	2	3	4	5	6
Yeast UUG start	4	nt	-7	-4	nt	-2
MC4R antag cAMP	17	4	nt	nt	3	2
ARFGAP1 inh	12	-3	nt	nt	11	-1
MC4R barr ag	5	5	nt	nt	-2	-2
ASAP1 inh	12	-9	nt	nt	0	-6
CendR NRP1 mod	-14	-2	nt	nt	5	15
MC4R ag barr	10*	17*	nt	nt	15*	11*
MOR-DOR barr ag	4	4	nt	nt	4	2

7. COC(=O)c1ccc(NC(=O)c2ccc3c(c2)OCO3)cc1
8. COc1cc(NC(=O)c2ccc3c(c2)OCO3)c2ncccc2c1
9. CC(C)c1nnc(NC(=O)c2ccc3c(c2)OCO3)s1
10. O=C(NC(=S)Nc1ccc2c(c1)OCO2)c1ccccc1
11. COC(=O)c1sccc1NC(=O)c1ccc2c(c1)OCO2
12. O=C(C[C@H]1C[C@H]2c3cc(NC(=O)Cc4ccncc4)ccc3O[C@H]2[C@H](CO)O1)NCc1ccc(-c2ccccc2)cc1
assay / entry	7	8	9	10	11	12
Yeast UUG start	-16	-15	nt	-17	7	0
MC4R antag cAMP	-2	8	6	4	9	nt
ARFGAP1 inh	12	7	5	7	24	nt
MC4R barr ag	nt	2	nt	nt	-1	nt
ASAP1 inh	-1	20	15	-1	1	nt
CendR NRP1 mod	2	6	-9	5	10	nt
MC4R ag barr	-1	10*	-4	1	15*	nt
MOR-DOR barr ag	nt	1	nt	nt	2	nt

13. CO[C@@H]1CN(C)C(=O)c2ccc(NS(=O)(=O)c3ccccc3C)cc2OC[C@@H](C)N(S(=O)(=O)c2ccccc2)C[C@H]1C
14. COc1nc(-c2ccc(Cl)cc2)ccc1-c1noc(-c2ccco2)n1
15. COc1nc2c(C)cccc2cc1-c1noc(-c2ccco2)n1
16. N/C(=N\c1nc(CSc2nc3ccccc3s2)cc(=O)[nH]1)Nc1ccc(F)cc1
17. COc1ccc(CN(C)C[C@H]2Oc3c(NS(=O)(=O)c4cccs4)cccc3C(=O)N([C@@H](C)CO)C[C@@H]2C)cc1
18. O=C(CCCCCn1c(=S)[nH]c2cc3c(cc2c1=O)OCO3)N1CCN(c2ccccc2)CC1
assay / entry	13	14	15	16	17	18
Yeast UUG start	-11	-10	-6	nt	2	-21
MC4R antag cAMP	nt	9	3	2	nt	18
ARFGAP1 inh	nt	8	7	7	nt	1
MC4R barr ag	nt	nt	5	1	nt	nt
ASAP1 inh	nt	5	11	-2	nt	15
CendR NRP1 mod	nt	-3	-20	-11	nt	-1
MC4R ag barr	nt	-1	14*	12*	nt	2
MOR-DOR barr ag	nt	nt	2	3	nt	nt

# Next part, overlapping the part above by 4 compounds.
15. COc1nc2c(C)cccc2cc1-c1noc(-c2ccco2)n1
16. N/C(=N\c1nc(CSc2nc3ccccc3s2)cc(=O)[nH]1)Nc1ccc(F)cc1
17. COc1ccc(CN(C)C[C@H]2Oc3c(NS(=O)(=O)c4cccs4)cccc3C(=O)N([C@@H](C)CO)C[C@@H]2C)cc1
18. O=C(CCCCCn1c(=S)[nH]c2cc3c(cc2c1=O)OCO3)N1CCN(c2ccccc2)CC1
19. COc1cccc(N2CCN(C(=O)CCCCCn3c(=S)[nH]c4cc5c(cc4c3=O)OCO5)CC2)c1
20. O=C(CCCCCn1c(=S)[nH]c2ccccc2c1=O)NCc1ccc2c(c1)OCO2
21. CCCC(=O)Nc1ccc2c(c1)C(=O)N(C)[C@@H]1CC[C@@H](CC(=O)NCCc3ccccc3)O[C@H]1CO2
22. COc1ccc(NC(=O)/C=C/c2ccccc2)c([N+](=O)[O-])c1
23. COc1ccc(/C=C/C(=O)Nc2ccc(OC)cc2[N+](=O)[O-])cc1
24. CCOc1ccc(NC(=S)NC(=O)/C=C/c2ccc(C)cc2)c([N+](=O)[O-])c1
assay / entry	15	16	17	18	19	20	21	22	23	24
Yeast UUG start	-6	nt	2	-21	-18	-8	-13	nt	nt	nt
MC4R antag cAMP	3	2	nt	18	-2	15	nt	-13	-4	-18
ARFGAP1 inh	7	7	nt	1	0	-4	nt	9	-5	8
MC4R barr ag	5	1	nt	nt	14*	2	nt	nt	7	17*
ASAP1 inh	11	-2	nt	15	6	5	nt	-9	0	-10
CendR NRP1 mod	-20	-11	nt	-1	16	3	nt	0	-42	0
MC4R ag barr	14*	12*	nt	2	35*	10*	nt	3	32*	38*
MOR-DOR barr ag	2	3	nt	nt	21*	2	nt	nt	10	6

25. C[C@H](CO)N1C[C@H](C)[C@H](CN(C)C(=O)Nc2ccc(F)cc2)Oc2ccc(NC(=O)CCC(F)(F)F)cc2C1=O
26. C[C@H]1CN([C@@H](C)CO)C(=O)c2cccc(NS(=O)(=O)c3ccc(F)cc3)c2O[C@H]1CN(C)Cc1ccc(C(=O)O)cc1
27. C[C@H](CO)N1C[C@H](C)[C@@H](CN(C)C(=O)CCCN(C)C)OCCCC[C@H](C)Oc2ccc(NS(=O)(=O)c3ccccc3)cc2C1=O
28. CC(C)Cn1c(=S)[nH]c2cc(C(=O)NCc3ccccc3F)ccc2c1=O
29. Cc1nc2c(-c3ccc(F)cc3)c(C)nn2c(C)c1CCC(=O)Nc1ccccc1F
30. CC(=O)N[C@@H]1CC[C@@H](CCNC(=O)C2CCC2)O[C@@H]1CO
assay / entry	25	26	27	28	29	30
Yeast UUG start	25	-5	16	-18	-12	-5
MC4R antag cAMP	nt	nt	nt	3	2	nt
ARFGAP1 inh	nt	nt	nt	0	-1	nt
MC4R barr ag	nt	nt	nt	0	-2	nt
ASAP1 inh	nt	nt	nt	3	-5	nt
CendR NRP1 mod	nt	nt	nt	-6	-12	nt
MC4R ag barr	nt	nt	nt	14*	13*	nt
MOR-DOR barr ag	nt	nt	nt	4	4	nt

31. COc1ccc(OC)c(/C=N/NC(=O)c2cc3c(OC)cccc3[nH]2)c1
32. CCOc1ccc(/C=N/NC(=O)c2cc3c(OC)cccc3[nH]2)cc1
33. O=C(N[C@H]1C=C[C@H](CC(=O)N2CCOCC2)O[C@@H]1CO)c1ccc2c(c1)OCO2
34. CSc1ccc(/C=C/C(=O)OCC(=O)c2ccc[nH]2)cc1
35. CSc1ccc(/C=C/C(=O)OCC(=O)NC2CCCC2)cc1
36. CCSc1ccc(-c2cc(NC=O)c3ncc(-c4cccc(C(=O)NCCN(C)C)c4)n3c2)cc1
assay / entry	31	32	33	34	35	36
Yeast UUG start	nt	-8	-9	-9	1	-19
MC4R antag cAMP	12	-8	nt	5	9	2
ARFGAP1 inh	17	14	nt	-15	4	20
MC4R barr ag	nt	3	nt	-1	nt	13*
ASAP1 inh	-6	3	nt	6	-6	13
CendR NRP1 mod	3	-9	nt	-16	3	-31
MC4R ag barr	3	11*	nt	22*	2	11*
MOR-DOR barr ag	nt	18*	nt	6	nt	11
